The text below walks through data of patent publication US20240350589A1, “IL-2/IL-15RBETAGAMMA AGONIST COMBINATION WITH ANTIBODY-DRUG CONJUGATES FOR TREATING CANCER” (Cytune Pharma, priority 2021, published 2024).

For assay [1], the system named is AGS tumor cell line. The assay can be described thus: Expression of NK cell ligands on early apoptotic AGS cells (flow cytometry). Type of assay: cell-based, human. To be noted: 72 h. Here is the method: Similarly, the expression of NK cell ligands CD112, CD155 and ULBP3 and ULBP2/5/6, as well as ULBP1, was determined by flow cytometry on these early apoptotic (AnnexinV^+/DAPI^−) cell populations using ULBP-2/5/6 (Biocompare, USA), CD155 (Biolegend, USA), Nectin-2/CD112 (R&D Systems, USA), ULBP-1 (Biocompare, USA) and ULBP-3 antibody (Biocompare, USA). […] (see FIG. 4).
In general terms: Flow cytometry measures light scatter and fluorescence of single cells or particles in a stream.

For assay [2], the system named is AGS tumor cell line. The assay can be described thus: Cell surface exposure of ICD markers CRT, HSP70, HSP90 on early apoptotic AGS cells (flow cytometry). The assay is classed as cell-based, human. Here is the method: The cells are collected and washed twice with PBS. The cells are then incubated for 30 min with primary antibody diluted in cold blocking buffer (2% fetal bovine serum in PBS), followed by washing and incubation with an […] monoclonal secondary antibody in blocking solution. Each sample was then analyzed using a FACScan Aria (BD Bioscience). Cell surface expression of HSP70, HSP90 and CRT is analyzed on non-permeabilized annexin V-positive/DAPI-negative cells.
The expression of ICD markers Hsp70, Hsp90 and CRT as well as NK cells ligands was measured by flow cytometry on these early apoptotic (AnnexinV^+/DAPI^−) cell populations using anti-calreticulin antibody (Abcam, USA), anti-HSP70 (R&D Systems, USA), anti-HSP90 (Enzo Life Sciences, USA). APC AffiniPure F(ab′)2 Fragment Goat Anti-Mouse (Jackson ImmunoResearch) was used as a secondary antibody.

Assay [3] concerns CD3-CD56+ cells (NK cells) of human PBMCs. Briefly: In vitro activation of NK cells: RLI-15 treated PBMCs co-incubated with treated AGS tumor cells. To be noted: PBMCs +/- 2.5 ng/ml RLI-15 72 h, 10:1, 4 h. The assay is classed as cell-based. Here is the method:
As controls non-treated tumor cells were incubated with non-treated PBMC (KadNT in the ADC group) and non-treated tumor cells were incubated with RLI-15 treated PBMC (KadNT in the RLI+ADC group).

In assay [4] the test system is AGS tumor cell line. The assay can be described thus: In vitro killing of AGS tumor cells, AnnexinV/DAPI flow cytometry. Type of assay: cell-based, human. The note with it: Kadcyla 5, 7, 8, 10 μg/ml, 72 h. From the text:
Similar settings of the in vitro experiments described in Example 2 and Example 4 were used to screen for synergy to other ICD-inducing agents/modalities (selected standard of care chemotherapies “SoC”: doxorubicin or cisplatin).

Another assay deals with huHER2/EMT-6 tumors. Briefly: Orthotopic huHER2/EMT-6 breast cancer model in vivo. The arrangement: species or system Balb/c AnN mice. To be noted: RLI-15 1 mg/kg s.c. days 15-18; Kadcyla 15 mg/kg i.v. days 0 and 7. Here is the method:
The study was initiated when the initial mean tumor volume among individual groups reached 140 mm^3. […] RLI-15 was administered in 4 sequential doses on study days 15-18 to amplify the numbers and activate immune cells. The antitumor efficacy was evaluated on the level of absolute tumor volume change. Safety has been monitored by body weight loss in individual animals. HER2 expression in individual tumors was analyzed using HercepTest™ (Dako) at the endpoint to map for potential heterogeneity of the model (staining was performed according to the instructions given by the manufacturer).

[5] abbreviates: early apoptotic cells, Kadcyla 5-10 μg/ml, 72 h.

“Kadcyla: antibody-drug conjugate of humanized monoclonal antibody trastuzumab directed to HER2 covalently linked to mertansine/DM1”: in the assay on AGS tumor cell line [1], the “Kadcyla concentration at which maximum expression was reached, CD155” value was 7 µg/kg; the “Kadcyla concentration at which maximum expression was reached, ULBP3 and ULBP2/5/6” value came to 8 µg/kg. In the assay on AGS tumor cell line [1] (Kadcyla 5-10 μg/ml), the “expression of NK cell ligands CD112, CD155, ULBP3 and ULBP2/5/6” value is “increasing expression”; the “expression of ULBP1” value was “did not show a significant change”. Further, in the assay with AGS tumor cell line [2] (Kadcyla 7 μg/ml 72 h vs doxorubicin 1.2 μM, cisplatin 100 μM 48 h), the “% of calreticulin, HSP70 and HSP90 positive cells, comparison of agents” value was “more efficient”. Moreover, in the assay with AGS tumor cell line [2] (setting [5]), the “% of ICD marker positive cells with increasing concentrations of Kadcyla” value is on record as “this trend was stronger”; the “expression of ICD markers Hsp70, Hsp90 and CRT compared to non-treated cells” value was “strong increase of ICD markers”; the “mean fluorescence intensity of ICD markers with increasing concentrations of Kadcyla” value was “no or only a weak trend”. Besides, in the assay on AGS tumor cell line [2] (tumor cell line with low to intermediate Her-2 expression), the “fraction of tumor cells undergoing ICD” value is listed as “large fraction of tumor cells undergoing ICD”. For the same substance, the “proliferation of CD3-CD56+ NK cells” value in assay [3] (AGS cells +/- Kadcyla 72 h) is “no subsequent proliferation”. In addition, the “% of IFNγ+ NK cells” value in assay [3] (AGS cells treated with Kadcyla 5-10 μg/ml 72 h) is recorded as “up to 10%”. Besides, the “early apoptotic (AnnexinV+/DAPI-) cell population” value with AGS tumor cell line [4] is given as “increasing populations of AnnexinV^+/DAPI^− cells”. For the same substance, in the assay on huHER2/EMT-6 tumors, the “tumor volume at the end of the study” value is listed as “intermediate tumor volume increase”.
